Data as given in patent US20230101403A1, “METHOD OF TREATING OR AMELIORATING CANCERS DRIVEN BY RECEPTOR TYROSINE KINASE FUSION ONCOGENES, AND COMPOSITIONS FOR THE SAME” (THE TRUSTEES OF THE UNIVERSITY OF PENNSYLVANIA, priority 2021, published 2023).

Key:
[1] = test system: Erk activity, STE-1 cells; assay: live cell imaging of Erk kinase translocation reporter (ErkKTR); assay type: cell-based
Description: Error bars represent 95% confidence intervals. […] FIG. 4I depicts the comparison of EGR1 expression after 6 hr of inhibitor treatment. […] FIG. 5B is the schematic of spatial analysis of Erk signaling in relation to dying cells. Cells within a 32 μm radius of a dying cell were considered neighbors of the dying cell, whereas all other cells were non-neighbors. Neighbors/non-neighbors were identified and tracked for 50 min before the death event, and Erk actvity in these cells was quantified. FIG. 5C depicts the quantification of Erk activity pulses in neighbors (“N”) or non-neighbors (“R”) of each cell-death event in the indicated conditions.
To further understand Erk reactivation, the present study observed Erk activity using live cell imaging of the Erk kinase translocation reporter (ErkKTR) in STE-1 cells (FIG. 4A). ErkKTR is a fluorescence reporter whose localization corresponds with Erk activity: the nuclear localization of ErkKTR indicates low activity of Erk while the cytoplasmic localization indicates high activity of Erk.

H3122 cells = conditions: crizotinib 1 μM, marimastat 10 μM

C[C@@H](Oc1cc(-c2cnn(C3CCNCC3)c2)cnc1N)c1c(Cl)ccc(F)c1Cl [crizotinib]
time to onset of Erk activity pulsing ([1]; 1 μM): ≤ 1 h | duration of Erk activity pulses ([1]; individual cells): ~15 min | cell outgrowth at 17 days of treatment (H3122 cells): started to grow out again
